According to paper PMC11236204 (PLOS Pathogens, 2024):

Tests used:
[1] = tested on: Ifit2, Cxcl10, Tnfa, Cxcl1 RNA; assay: ISG and inflammatory gene expression by qPCR, rat cortical neurons; type: cell-based; conditions: vehicle = 1; for Rel. Fold change Cxcl1 RNA: Fig 4D; for Rel. Fold change Cxcl10 RNA: Fig 4E
[2] = tested on: Cxcl1, Ccl2 RNA; assay: Inflammatory gene expression by qPCR, wild type or TLR2 KO mouse neurons; conditions: Wt vehicle = 1; for Rel. Fold change Cxcl1 RNA: Fig 4K; for Rel. Fold change Ccl2 RNA: Fig 4L

CCCCCCCCCCCCCCCC(=O)N[C@@H](CSCC(COC(=O)CCCCCCCCCCCCCCC)OC(=O)CCCCCCCCCCCCCCC)C(=O)N[C@@H](CO)C(=O)N[C@@H](CCCCN)C(=O)N[C@@H](CCCCN)C(=O)N[C@@H](CCCCN)C(=O)N[C@@H](CCCCN)C(=O)O (stereo partly drawn) [Pam3CSK4]
Rel. Fold change Cxcl1 RNA ([1]; replicate 1): 896.541 | Rel. Fold change Cxcl1 RNA ([1]; replicate 2): 1514.5 | Rel. Fold change Cxcl1 RNA ([1]; replicate 3): 660.399 | Rel. Fold change Cxcl10 RNA ([1]; replicate 1): 607.751 | Rel. Fold change Cxcl10 RNA ([1]; replicate 2): 2363.87 | Rel. Fold change Cxcl10 RNA ([1]; replicate 3): 680.019 | Rel. Fold change Cxcl1 RNA ([2]; TLR2 KO, replicate 1): 1.167 | Rel. Fold change Cxcl1 RNA ([2]; TLR2 KO, replicate 2): 1.559 | Rel. Fold change Cxcl1 RNA ([2]; TLR2 KO, replicate 3): 5.824 | Rel. Fold change Cxcl1 RNA ([2]; Wt, replicate 1): 719.015 | Rel. Fold change Cxcl1 RNA ([2]; Wt, replicate 2): 355.675 | Rel. Fold change Cxcl1 RNA ([2]; Wt, replicate 3): 745.984 | Rel. Fold change Ccl2 RNA ([2]; TLR2 KO, replicate 1): 1.274 | Rel. Fold change Ccl2 RNA ([2]; TLR2 KO, replicate 2): 1.988 | Rel. Fold change Ccl2 RNA ([2]; TLR2 KO, replicate 3): 93.9616 | Rel. Fold change Ccl2 RNA ([2]; Wt, replicate 1): 293.382 | Rel. Fold change Ccl2 RNA ([2]; Wt, replicate 2): 459.401 | Rel. Fold change Ccl2 RNA ([2]; Wt, replicate 3): 5408.45
